# According to patent publication US20110124657A1, “METHOD FOR SCREENING OF 5HT7 RECEPTOR LIGANDS BASED ON A NEW PHARMACOPHORE MODEL AND A DESCRIPTOR'S PROFILE FILTER” (LABORATORIOS DEL DR. ESTEVE, S.A., priority 2008, published 2011):
# By UniProt entry, the sequences of proteins in these tests, tags left out.
# UniProt P34969, whole entry: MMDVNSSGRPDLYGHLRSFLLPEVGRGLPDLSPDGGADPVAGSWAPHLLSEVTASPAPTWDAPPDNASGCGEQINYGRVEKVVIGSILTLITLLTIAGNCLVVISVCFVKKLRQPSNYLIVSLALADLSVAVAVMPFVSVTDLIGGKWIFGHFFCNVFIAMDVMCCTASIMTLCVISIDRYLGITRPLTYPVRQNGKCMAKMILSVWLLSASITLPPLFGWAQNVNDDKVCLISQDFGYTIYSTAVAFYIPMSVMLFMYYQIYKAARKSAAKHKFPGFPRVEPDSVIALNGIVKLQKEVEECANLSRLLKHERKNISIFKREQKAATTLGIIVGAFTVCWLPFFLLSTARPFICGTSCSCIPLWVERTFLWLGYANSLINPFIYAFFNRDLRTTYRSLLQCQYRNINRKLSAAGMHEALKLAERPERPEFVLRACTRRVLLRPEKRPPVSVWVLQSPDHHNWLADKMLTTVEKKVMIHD
# Only a part of the results on these compounds is given; other tests are left out.
# Target: Cloned Human Serotonin Receptor, Subtype 7 (h5HT7), expressed in CHO cells (Homo sapiens, UniProt P34969)
# Assay: Radioligand binding, [125I]LSD, Flashplate
# Details: compound at 10^−6 M; radioligand [125I]LSD 0.82 nM
# Method: Radioligand binding assays were performed using the Cloned Human Serotonin Receptor, Subtype 7 (h5HT7), expressed in CHO cells, coated on Flashplate (Basic FlashPlate Cat.: SMP200) from PerkinElmer (Cat.: 6120512). The protocol assay was essentially the recommended protocol in the Technical Data Sheet by PerkinEmer Life and Analytical Sciences. The Mass membrane protein/well was typically 12 μg and the Receptor/well was about 9-10 fmoles. The Flashplate were let equilibrate at room temperature for one hour before the addition of the components of the assay mixture. The binding buffer was: 50 mM Tris-HCl, pH 7.4, containing 10 mM MgCl2, 0.5 mM EDTA and 0.5% BSA. The radioligand was [^125I]LSD at a final concentration of 0.82 nM. Nonspecific binding was determined with 50 μM of Clozapine. The assay volume was 25 μl. […] The radioactivity were quantified by liquid scintillation spectrophotometry (Wallac 1450 Microbeta Trilux) with a count delay of 4 minutes prior to counting and a counting time of 30 seconds per well. Competition binding data were analyzed by using the LIGAND program (Munson and Rodbard, LIGAND: A versatile, computerized approach for characterization of ligand-binding systems. Anal. Biochem. 107: 220-239, 1980) and assays were performed in triplicate determinations for each point.
smiles,measurement,value
O=c1[nH]c2ccccc2n1C1CCN(Cc2ccc(F)c(F)c2)CC1,%-Inhib. (10^−6 M),61.2%
